# Measurements: PubChem BioAssay (Tox21)
# By UniProt entry, the sequences of proteins in these tests, tags left out. Where a name states a change or a piece, a line headed by the entry shows the natural chain unless it says otherwise.
# UniProt Q92731, whole entry, looked up: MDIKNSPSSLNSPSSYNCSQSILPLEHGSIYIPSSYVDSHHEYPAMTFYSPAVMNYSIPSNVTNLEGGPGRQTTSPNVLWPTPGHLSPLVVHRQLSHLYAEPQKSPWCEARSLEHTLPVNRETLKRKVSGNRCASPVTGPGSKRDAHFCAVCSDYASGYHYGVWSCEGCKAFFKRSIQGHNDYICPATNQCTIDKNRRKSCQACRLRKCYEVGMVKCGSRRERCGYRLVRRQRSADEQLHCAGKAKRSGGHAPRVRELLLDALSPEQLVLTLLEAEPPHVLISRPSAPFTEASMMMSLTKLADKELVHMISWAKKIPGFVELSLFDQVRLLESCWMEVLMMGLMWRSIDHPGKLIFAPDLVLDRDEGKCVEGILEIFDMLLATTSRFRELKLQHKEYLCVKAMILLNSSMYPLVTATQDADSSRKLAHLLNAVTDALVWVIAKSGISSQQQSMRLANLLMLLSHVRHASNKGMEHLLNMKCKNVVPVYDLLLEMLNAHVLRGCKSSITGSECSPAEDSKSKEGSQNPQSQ
# UniProt P03372, whole entry, looked up: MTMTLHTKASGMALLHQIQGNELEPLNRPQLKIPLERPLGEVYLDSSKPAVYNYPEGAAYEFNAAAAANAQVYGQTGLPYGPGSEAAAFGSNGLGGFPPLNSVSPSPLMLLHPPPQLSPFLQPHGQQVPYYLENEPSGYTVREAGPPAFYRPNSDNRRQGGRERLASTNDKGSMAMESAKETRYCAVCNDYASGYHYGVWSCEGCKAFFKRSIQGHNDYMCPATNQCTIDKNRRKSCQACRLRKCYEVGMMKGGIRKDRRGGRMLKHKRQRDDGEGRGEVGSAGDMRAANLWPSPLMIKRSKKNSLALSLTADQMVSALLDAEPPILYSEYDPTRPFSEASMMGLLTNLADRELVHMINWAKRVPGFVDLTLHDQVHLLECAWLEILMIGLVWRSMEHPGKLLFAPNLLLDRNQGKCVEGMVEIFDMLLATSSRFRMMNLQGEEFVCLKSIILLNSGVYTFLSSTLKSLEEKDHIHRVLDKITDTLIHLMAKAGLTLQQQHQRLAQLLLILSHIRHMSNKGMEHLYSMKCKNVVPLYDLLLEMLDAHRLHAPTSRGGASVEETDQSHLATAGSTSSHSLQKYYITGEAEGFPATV
# UniProt P10275: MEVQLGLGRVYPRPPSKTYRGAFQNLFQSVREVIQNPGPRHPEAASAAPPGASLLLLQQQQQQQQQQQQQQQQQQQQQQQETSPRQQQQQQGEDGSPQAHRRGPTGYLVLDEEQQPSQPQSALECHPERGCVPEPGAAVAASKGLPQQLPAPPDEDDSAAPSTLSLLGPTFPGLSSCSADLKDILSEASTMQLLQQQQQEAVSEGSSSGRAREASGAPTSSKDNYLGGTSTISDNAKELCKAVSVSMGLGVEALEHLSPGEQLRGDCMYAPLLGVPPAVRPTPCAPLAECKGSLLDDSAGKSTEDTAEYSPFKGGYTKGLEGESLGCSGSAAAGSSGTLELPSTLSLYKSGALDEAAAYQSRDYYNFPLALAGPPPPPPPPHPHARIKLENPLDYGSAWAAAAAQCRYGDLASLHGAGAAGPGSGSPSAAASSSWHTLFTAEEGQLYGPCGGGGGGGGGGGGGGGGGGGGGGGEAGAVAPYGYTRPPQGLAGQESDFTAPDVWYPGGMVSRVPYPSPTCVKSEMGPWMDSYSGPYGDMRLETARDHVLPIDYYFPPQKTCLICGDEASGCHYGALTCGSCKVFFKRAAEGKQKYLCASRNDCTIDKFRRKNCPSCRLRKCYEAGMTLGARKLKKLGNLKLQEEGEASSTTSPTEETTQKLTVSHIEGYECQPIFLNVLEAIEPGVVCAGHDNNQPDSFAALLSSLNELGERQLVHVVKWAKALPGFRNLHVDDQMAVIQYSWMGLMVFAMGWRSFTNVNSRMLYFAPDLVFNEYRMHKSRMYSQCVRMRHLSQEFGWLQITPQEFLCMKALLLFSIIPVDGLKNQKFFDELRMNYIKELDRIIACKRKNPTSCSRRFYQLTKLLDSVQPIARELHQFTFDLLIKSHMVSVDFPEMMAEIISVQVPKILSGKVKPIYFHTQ
# UniProt Q96RI1: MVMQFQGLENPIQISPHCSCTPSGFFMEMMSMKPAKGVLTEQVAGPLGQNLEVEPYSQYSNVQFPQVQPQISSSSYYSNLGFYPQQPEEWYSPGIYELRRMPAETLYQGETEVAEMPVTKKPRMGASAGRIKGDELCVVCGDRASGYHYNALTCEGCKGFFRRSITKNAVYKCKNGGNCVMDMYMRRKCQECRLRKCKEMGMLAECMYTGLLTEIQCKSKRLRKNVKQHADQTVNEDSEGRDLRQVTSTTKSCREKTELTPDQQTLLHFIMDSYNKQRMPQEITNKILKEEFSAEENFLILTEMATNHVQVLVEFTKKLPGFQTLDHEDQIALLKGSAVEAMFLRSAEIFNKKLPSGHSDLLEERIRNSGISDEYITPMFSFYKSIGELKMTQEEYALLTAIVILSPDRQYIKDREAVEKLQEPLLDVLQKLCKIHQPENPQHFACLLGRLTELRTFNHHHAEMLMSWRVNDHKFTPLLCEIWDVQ
# UniProt P34981: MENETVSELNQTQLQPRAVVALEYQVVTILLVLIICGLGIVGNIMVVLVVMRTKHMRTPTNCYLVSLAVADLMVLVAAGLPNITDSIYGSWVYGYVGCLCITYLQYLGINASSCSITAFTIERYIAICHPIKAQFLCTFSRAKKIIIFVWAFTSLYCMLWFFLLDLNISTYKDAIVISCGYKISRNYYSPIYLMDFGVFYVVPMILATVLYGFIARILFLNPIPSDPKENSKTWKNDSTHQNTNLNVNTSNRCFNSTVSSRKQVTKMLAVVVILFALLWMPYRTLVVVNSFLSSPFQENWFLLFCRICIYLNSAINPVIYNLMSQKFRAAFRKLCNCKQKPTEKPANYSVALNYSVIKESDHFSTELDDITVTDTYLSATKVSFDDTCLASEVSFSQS
# Several values for one entry are separate records, joined by “and”; a condition that tells them apart may be missing. A call without a number means that no potency is given here. Equal entries are not always repeated. For some of these results: What follows is the remainder of the data, with few or none of the hits. Results filed as inconclusive are left out. This is a selection; strong and weak results do not stand in their true shares. Where a structure was tested more than once in an assay, its records may differ in their call. Activity calls are given as the source filed them. Unless noted, the call rests on the fitted dose curve; in most records, active means well fitted curve in the direction sought with a large enough effect in the repeat runs; inconclusive means weak or mixed curves; inactive means no such curve, though single readings can be large; an effect the other way counts as inactive or inconclusive.
# Key:
# [1] = qHTS assay to identify small molecule agonists of the NFkB signaling pathway (AID 1159509; active means well fitted curve in the direction sought with a large enough effect in the signal ratio in the repeat runs, not every such curve was filed as active; the % refers to the signal ratio); settings: NFkB-bla ME-180 cells, beta-lactamase FRET ratio, 5 h
# How it was run: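 After overnight attachment, reporter cells received test compounds, DMSO or positive controls and were incubated 5 hr at 37 C. FRET substrate was then added for 1.5 hr at room temperature before dual-emission fluorescence reading.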
# [2] = qHTS assay to identify small molecule antagonists of the retinoic acid receptor (RAR) signaling pathway (AID 1159552; further: nearly all actives have a fitted effect of over 50% in size; further: potency means the concentration at half of the fitted maximal effect); settings: C3RL4 RARE luciferase reporter, retinol-stimulated, 6 h; series mostly up to 92.4 µM
# How it was run: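 Using a RARE-driven luciferase construct in C3RL4 cells, retinol at 1 uM final provided the agonist stimulus while compounds were co-applied. After 6 hours at 37 C, luminescence was recorded to flag inhibitors of retinol signaling.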
# [3] = target: Estrogen receptor beta (Homo sapiens) (UniProt Q92731); test: qHTS assay to identify small molecule antagonists of the estrogen receptor beta (ER-beta) signaling pathway (AID 1259378; active means well fitted inhibition curve with a large enough effect in the signal ratio in the repeat runs, not every such curve was filed as active; the % refers to the signal ratio; further: potency means the concentration at half of the fitted maximal effect); settings: ER-beta-UAS-bla HEK293T, beta-lactamase FRET ratio, 16 h; series mostly up to 92.4 µM
# How it was run: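 ER-beta-UAS-bla HEK293T (GripTite) cells in 2% charcoal-stripped FBS medium were preincubated 6 hr at 37C, dosed with compound, then stimulated with 1 nM E2 (final) for 16 hr; beta-lactamase reporter read by B/G FRET fluorescence after 2 hr substrate loading.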
# [4] = target: Nuclear receptor subfamily 1 group I member 2 (Homo sapiens) (UniProt O75469); test: Human pregnane X receptor (PXR) small molecule agonists, qHTS assay (AID 1346982); settings: PXR-Luc HepG2, CYP3A4 luciferase reporter, 24 h; series mostly up to 92.4 µM; further: nearly all actives have a fitted effect of over 35% in size
# How it was run: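 We seeded PXR-Luc HepG2 cells in assay medium containing 5% charcoal-stripped FBS, added compounds 5 hr later, incubated 24 hr, and read luminescence with ONE-Glo reagent.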
# [5] = target: Nuclear receptor subfamily 1 group I member 2 (Homo sapiens) (UniProt O75469); test: CYP3A4 induction through human pregnane X receptor (PXR) by small molecules, qHTS assay (AID 1346984); settings: DPX-2 HepG2 PXR, CYP3A4-luciferin luminescence, 24 h; series mostly up to 46.1 µM; further: nearly all actives have a fitted effect of over 40% in size
# How it was run: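 qHTS, concentration-response format: HepG2 DPX-2 line, PXR/CYP3A4-luc. Exposure 24 h, 37C. Substrate Luciferin-IPA 3uM final, 3 h. Detection One-Glo, 30 min RT.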
# [6] = target: Nuclear receptor subfamily 1 group I member 2 (Homo sapiens) (UniProt O75469); test: Human pregnane X receptor (PXR) activation by small molecules, qHTS assay (AID 1346985); settings: DPX-2 HepG2 CYP3A4-luciferase, 24 h; series mostly up to 38.3 µM; further: nearly all actives have a fitted effect of over 40% in size
# [7] = target: Estrogen receptor (Homo sapiens) (UniProt P03372); test: qHTS assay to identify small molecule antagonists of the estrogen receptor alpha (ER-alpha) signaling pathway (AID 743069; active means well fitted curve in the direction sought with a large enough effect in the signal ratio in the repeat runs, not every such curve was filed as active; the % refers to the signal ratio); settings: HEK293 ER-alpha-UAS-bla, beta-lactamase ratio, antagonist mode
# [8] = target: Estrogen receptor (Homo sapiens) (UniProt P03372); test: qHTS assay to identify small molecule agonists of the estrogen receptor alpha (ER-alpha) signaling pathway (AID 743075; calls by dose curve); settings: HEK293 ER-alpha-UAS-bla, beta-lactamase FRET ratio, 18 h; series mostly up to 70.1 µM
# [9] = target: Estrogen receptor (Homo sapiens) (UniProt P03372); test: qHTS assay to identify small molecule antagonists of the estrogen receptor alpha (ER-alpha) signaling pathway using the BG1 cell line in the presence of 0.1 nM 17-beta-estradiol (AID 1259244); settings: VM7Luc4E2 (BG1) ERE-luciferase, antagonist mode, 0.1 nM E2, 22 h; series mostly up to 92.4 µM; further: nearly all actives have a fitted effect of over 50% in size; further: potency means the concentration at half of the fitted maximal effect
# [10] = target: Estrogen receptor (Homo sapiens) (UniProt P03372); test: qHTS assay to identify small molecule agonists of the estrogen receptor alpha (ER-alpha) signaling pathway in the presence of an antagonist (AID 1259383; calls by dose curve; further: top concentration of the series differs between compounds; nearly all actives have a fitted effect of over 15% in size); settings: VM7Luc4E2 cells, ERE-luciferase, +ICI-182,780, 22 h
# [11] = target: Androgen receptor (Homo sapiens) (UniProt P10275); test: qHTS assay to identify small molecule antagonists of the androgen receptor (AR) signaling pathway (AID 743035; active means well fitted inhibition curve with a large enough effect in the signal ratio in the repeat runs, not every such curve was filed as active; the % refers to the signal ratio); settings: HEK293 AR-UAS-bla, R1881-stimulated, beta-lactamase FRET, 16 h; series mostly up to 58.5 µM
# [12] = target: Androgen receptor (Homo sapiens) (UniProt P10275); test: qHTS assay to identify small molecule agonists of the androgen receptor (AR) signaling pathway using the MDA cell line (AID 743040; further: nearly all actives have a fitted effect of over 20% in size); settings: MDA-kb2 AR-luc cells, MMTV luciferase, 16 h, stronger effect = higher value; at 70.3 µM (top of the series) unless noted
# [13] = target: Androgen receptor (Homo sapiens) (UniProt P10275); test: qHTS assay to identify small molecule antagonists of the androgen receptor (AR) signaling pathway using the MDA cell line (AID 743042; further: nearly all actives have a fitted effect of over 55% in size); settings: MDA-kb2 AR-luc, MMTV luciferase, R1881 antagonist, 16 h; series mostly up to 70.3 µM
# [14] = target: Androgen receptor (Homo sapiens) (UniProt P10275); test: qHTS assay to identify small molecule antagonists of the androgen receptor (AR) signaling pathway using the MDA cell line in the presence of 0.5 nM R1881 (AID 1259243); settings: MDA-kb2 MMTV-luciferase, R1881 0.5 nM, 16 h; series mostly up to 42.5 µM; further: nearly all actives have a fitted effect of over 50% in size; further: potency means the concentration at half of the fitted maximal effect
# [15] = target: Androgen receptor (Homo sapiens) (UniProt P10275); test: qHTS assay to identify small molecule agonists of the androgen receptor (AR) signaling pathway in the presence of an antagonist (AID 1259381; calls by dose curve; further: nearly all actives have a fitted effect of over 15% in size); settings: MDA-kb2 MMTV-luciferase, AR agonist + nilutamide, 16 h; at 42.5 µM (top of the series)
# [16] = target: Bile acid receptor (Homo sapiens) (UniProt Q96RI1); test: qHTS assay to identify small molecule antagonists of the farnesoid-X-receptor (FXR) signaling pathway (AID 743217; active means well fitted inhibition curve with a large enough effect in the signal ratio in the repeat runs, not every such curve was filed as active; the % refers to the signal ratio); settings: HEK293T FXR-UAS-bla, beta-lactamase ratio, CDCA-stimulated, 16 h; at 81.1 µM (top of the series) unless noted
# How it was run: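 In this cell-based antagonist screen, inhibition of CDCA-driven (50 uM final) UAS-beta-lactamase expression in HEK 293T cells was measured by FRET fluorescence following 16 h compound exposure at 37 °C.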
# [17] = target: Bile acid receptor (Homo sapiens) (UniProt Q96RI1); test: qHTS assay to identify small molecule agonists of the farnesoid-X-receptor (FXR) signaling pathway (AID 743220; active means well fitted activation curve with a large enough effect in the signal ratio in the repeat runs, not every such curve was filed as active; the % refers to the signal ratio); settings: HEK293T FXR-UAS-bla, beta-lactamase FRET ratio, 16 h; at 62.6 µM (top of the series) unless noted
# [18] = qHTS assay to identify small molecule antagonists of the estrogen related receptor signaling pathway with the pleiotropic PPARgamma coactivator (PGC) from Tox21 10K library - cell viability counter screen (AID 1224840; active means well fitted cell-killing curve with a large enough effect in the repeat runs, not every such curve was filed as active; further: nearly all actives have a fitted effect of over 40% in size); settings: PGC/ERR reporter cells viability, CellTiter-Fluor, 17.5 h
# How it was run: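 Here the PGC/ERR cells serve as a cytotoxicity control: they are exposed to compounds for 17.5 hours at 37 C, and live-cell signal is quantified using CellTiter-Fluor fluorescence.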
# [19] = target: Estrogen receptor beta (Homo sapiens) (UniProt Q92731); test: qHTS assay to identify small molecule agonists of the estrogen receptor beta (ER-beta) signaling pathway (AID 1259377; active means well fitted activation curve with a large enough effect in the signal ratio in the repeat runs, not every such curve was filed as active; the % refers to the signal ratio); settings: ER-beta-UAS-bla HEK293T, beta-lactamase FRET ratio, 16 h; at 92.4 µM (top of the series)
# [20] = target: Thyrotropin-releasing hormone receptor (Homo sapiens) (UniProt P34981); test: qHTS assay to identify small molecule antagonists of the thyrotropin-releasing hormone receptor (TRHR) signaling pathway (AID 1346877; active means well fitted inhibition curve with a large enough effect in the repeat runs, not every such curve was filed as active); settings: TRHR-HEK293, TRH-induced calcium fluorescence, antagonist mode; at 23.6 µM (top of the series) unless noted
smiles,measurement,setting,value
O=C1NC(=O)C(=O)C(=O)N1,activation,[1]; at 78.8 µM (top of the series),inactive: 0.0126%
same,Potency,[2],inactive
C[N+]1(CCC(C(N)=O)(c2ccccc2)c2ccccc2)CCCCC1,activation,[1]; at 61 µM (top of the series),inactive: 0.134%
same,Potency,[2],inactive
same,Potency,[3],inactive
CCCC[N+](CCCC)(CCCC)CCCC,activation,[1]; at 61 µM (top of the series),inactive: -0.723%
same,Potency,[2],inactive
same,Potency,[3],inactive
CC[n+]1c(-c2ccccc2)c2cc(N)ccc2c2ccc(N)cc21,Potency,[2],active: 24.2 µM and active: 26.6 µM
same,Potency,[3],active: 17.1 µM and active: 2.66 µM
CC[N+](CC)(CC)CC,activation,[1]; at 61 µM (top of the series),inactive: -0.382%
same,Potency,[2],inactive
same,Potency,[3],inactive
same,Potency,[4],inactive
same,Potency,[5],inactive
same,Potency,[6],inactive
CCOP(=O)(O)C(N)=O,Potency,[2],inactive
CNC(=S)S,activation,[1]; at 61 µM (top of the series),inactive: -0.253% and inactive: -0.282%
same,Potency,[3],inactive
Cc1cccc(N)c1,Potency,[2],inactive
C[N+](C)(C)CCCCCCCCCC[N+](C)(C)C,Potency,[2],inactive
CCCC[n+]1ccccc1,Potency,[2],inactive
CCCCCCCCCCCCCCCC[n+]1ccccc1,Potency,[2],active: 21.4 µM [middle of 4 runs]
CC[n+]1ccccc1,"activity, negative = inhibition",[7]; at 69.4 µM (top of the series),inactive: -2.52% [middle of 4 runs]
same,Potency,[8],inactive
same,activation,[1]; at 61 µM (top of the series),inactive: -0.378% [middle of 5 runs]
same,Potency,[2],inactive and active: 54 µM
same,Potency,[9],inactive and active: 8.56 µM
same,activation,[10]; at 92.4 µM (top of the series),inactive: 0.317% [middle of 5 runs]
CCCC[N+]1(C)[C@@H]2CC(OC(=O)[C@H](CO)c3ccccc3)C[C@H]1[C@@H]1O[C@@H]12 (some centres undefined),Potency,[11],inactive
same,activity change,[12],inactive: -2.6%
same,Potency,[13],inactive
same,activation,[1]; at 61 µM (top of the series),inactive: 0.379%
same,Potency,[14],inactive
same,Potency,[3],inactive
same,activation,[15],inactive: -0.239%
CCCCCCCCCCCCCCCC[N+](C)(C)C,activation,[1]; at 61 µM (top of the series),inactive: -0.0451%
Cc1ncc(C[n+]2csc(CCO)c2C)c(N)n1,activation,[1]; at 61 µM (top of the series),inactive: -0.473%
same,Potency,[4],inactive
same,Potency,[5],inactive
C[C@H](CN1CCOCC1)C(C(=O)N1CCCC1)(c1ccccc1)c1ccccc1,Potency,[2],inactive
CC[N+]1(CC)CCC(OC(=O)C(O)(c2ccccc2)c2ccccc2)C1 (centres undefined),activation,[1]; at 61 µM (top of the series),inactive: -0.05%
same,Potency,[2],inactive
same,Potency,[3],inactive
CCCC[n+]1ccc(C)cc1,Potency,[2],inactive and active: 54.2 µM
COC1CC(=C(c2cccs2)c2cccs2)C[N+](C)(C)C1 (centres undefined),activation,[1]; at 61 µM (top of the series),inactive: 0.0389%
same,Potency,[2],inactive
same,Potency,[3],inactive
Clc1ccc(CSC(Cn2ccnc2)c2ccc(Cl)cc2Cl)cc1 (centres undefined),Potency,[11],inactive
same,activity change,[12],inactive: -7.75% [at 32.5 µM]
same,Potency,[13],inactive
same,"activity, negative = inhibition",[7]; at 32.6 µM (top of the series),inactive: 14.7%
same,Potency,[8],inactive
same,Potency,[14],active: 11.9 µM
same,activation,[15],inactive: -10.7%
same,activation,[10]; at 42.5 µM (top of the series),inactive: -12.8%
Clc1ccc(CO/N=C(\Cn2ccnc2)c2ccc(Cl)cc2Cl)c(Cl)c1,Potency,[8],inactive
same,"activity change, negative = inhibition",[16],inactive: -1.06% [at 62.6 µM]
same,activation,[17],inactive: 6.88%
same,activation,[10]; at 42.5 µM (top of the series),inactive: 2.18%
Clc1ccc(CCC(Cn2ccnc2)Sc2c(Cl)cccc2Cl)cc1 (centres undefined),activity change,[12],inactive: -5.05% [at 32.5 µM]
same,Potency,[13],inactive
same,"activity, negative = inhibition",[7]; at 32.6 µM (top of the series),inactive: 12.9%
same,Potency,[8],inactive
same,activation,[17],inactive: 9.91%
same,Potency,[14],active: 26.6 µM
same,activation,[15],inactive: -8.24%
same,activation,[10]; at 42.5 µM (top of the series),inactive: 0.0222%
C[N+](C)(C)CC(=O)O,Potency,[3],inactive
Oc1ccccc1-c1ccccc1,Potency,[3],inactive
CCN,"activity, negative = inhibition",[7]; at 79.1 µM (top of the series),inactive: -3.82%
same,Potency,[8],inactive
same,Potency,[9],inactive
same,activation,[10]; at 92.4 µM (top of the series),inactive: -1.66%
C[N+](C)(C)CC(=O)[O-],Potency,[3],inactive
CCCCCCCCCC(CC)c1ccc(S(=O)(=O)O)cc1 (centres undefined),"viability change, negative = cytotoxic",[18]; at 42.5 µM (top of the series),inactive: -10%
same,"viability change, negative = cytotoxic",[18]; at 92.4 µM (top of the series),inactive: -19% and inactive: -21.1% and inactive: -18.2%
CCCCCCCCCCCCCCCCn1cc[n+](C)c1,Potency,[8],inactive
same,activation,[10]; at 92.4 µM (top of the series),inactive: -3.81% [middle of 4 runs]
C=CCOC(Cn1ccnc1)c1ccc(Cl)cc1Cl (centres undefined),Potency,[3],active: 17.3 µM and active: 23.7 µM
Cc1ccc(OP(=O)(Oc2ccc(C)cc2)Oc2ccc(C)cc2)cc1,activation,[19],inactive: 0.905%
same,Potency,[3],inactive
C[N+](C)(C)Cc1ccccc1,Potency,[3],inactive
N#CC(Br)(Br)C(N)=O,Potency,[4],inactive
O=C(O)c1ccccc1O,Potency,[2],inactive
same,Potency,[4],inactive
same,Potency,[5],inactive
same,Potency,[6],inactive
CC[C@H](O)C(C[C@H](C)N(C)C)(c1ccccc1)c1ccccc1,"activity, negative = inhibition",[20],inactive: 0.0404% [at 51.3 µM]
CCCn1cc[n+](C)c1,"activity, negative = inhibition",[7]; at 69.4 µM (top of the series),inactive: -9.98%
same,"activity, negative = inhibition",[7]; at 79.1 µM (top of the series),inactive: -1.56% and inactive: -5.22%
same,Potency,[8],inactive
same,Potency,[9],inactive
same,activation,[10]; at 92.4 µM (top of the series),inactive: -1.2% and inactive: 0.816% and inactive: 1.36%
